In one data set the target is BCL-XL (Homo sapiens (Human), UniProt Q07817). The data set can be described thus: Protein-protein interaction assay BCL-XL/Bad BH3 peptide (BCL-XL assay, TR-FRET). Particulars: read-out: BCL-XL Assay [M] (median) IC50, His-BCL-XL / Bad BH3 peptide. The format is binding. As for the experimental part:
Assay 2 Protein-Protein Interaction Assay: BCL-XL/Bad BH3 Peptide (BCL-XL Assay)
The dose-dependent inhibition by the compounds described in this invention of the interaction between BCL-XL and the BH3 domain of Bad (both human) was determined using a steady state binding competition assay with time-resolved fluorescence energy transfer (TR-FRET) readout. […]
In the assay 11 different concentrations of each compound (0.1 nM, 0.33 nM, 1.1 nM, 3.8 nM, 13 nM, 44 nM, 0.15 μM, 0.51 μM, 1.7 μM, 5.9 μM and 20 μM) were typically measured as duplicates in the same microtiter plate. […]
The mixture was incubated in the dark for one hour at 22° C. and then overnight at 4° C. The formation of BCL-XL/Bad complexes was determined by measuring the resonance energy transfer of the anti-His- Eu-cryptate antibody to the streptavidin-XL665 present in the reaction. For that purpose, the fluorescence emission at 620 nm and 665 nm after excitation at 330-350 nm was measured in a TR-FRET measuring instrument, for instance a Rubystar or a Pherastar (both from BMG Lab Technologies, Offenburg, Germany) or a Viewlux (Perkin-Elmer). […]
A general note: TR-FRET usually uses a lanthanide donor and a delayed reading to cut background.

By UniProt entry, the sequences of proteins in these tests, tags left out. Chains listed by the source or under a name are the forms on record and can include a tag or linker. Residues count along the entry.
UniProt Q07817, 1-212 with tags or gaps limits assumed: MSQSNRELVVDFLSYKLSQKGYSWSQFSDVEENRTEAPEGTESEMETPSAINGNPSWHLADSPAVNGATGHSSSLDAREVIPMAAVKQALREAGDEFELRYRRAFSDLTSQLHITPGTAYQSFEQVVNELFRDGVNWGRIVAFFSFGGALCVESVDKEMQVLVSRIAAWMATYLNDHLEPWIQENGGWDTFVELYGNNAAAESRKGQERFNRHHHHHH

The subject of the next data set is SUDHL5. As for the experimental part:
Assay 6 Induction of Cytotoxicity Upon Treatment of Cells with Selected Compounds
In principle, compounds that induce apoptosis will concomitantly induce cell cytotoxicity. Therefore, cytotoxicity assays were run in parallel in SUDHL5 and SUDHL10 cells.
The different cell lines were plated in culture medium (RPMI 1640 [GIBCO #22400-089] supplemented with 10% Fetal Bovine Serum) at a density of 3,300 cells in 30 μl/well in a sterile, solid black, flat bottom, polystyrene, TC-treated 384-well microplate (Corning #3571) using Multidrop Combi Reagent Dispenser. As a control, medium without cells was also added to the plate. Cells were incubated in a humidified incubator at 37° C. overnight. On the next day, the cells were treated with compounds (stock solution, 10 mM in DMSO) using the HP D300 Digital Dispenser in a concentration range of 3.3×10e-5 M (33 μM) to 5×10e-9 M (5 nM) in a single-dot curve with at least 16 dilutions and a DMSO concentration of 0.33%. Rim wells were excluded. The cells were incubated for 5 hours in a humidified incubator at 37° C. […] Finally, luminescence was read at 0.1 ms, with a gain of 3000 using the PHERAstar FS microplate reader (BMG Labtech). […]

Some results are limits rather than exact numbers.

Turning to `CCc1c2c(nn1C)CNS(=O)(=O)CCCn1c(C(=O)O)c(CCCOc3cccc4cc(F)ccc34)c3ccc(Cl)c-2c31`, the IC50 on BCL-XL was above 2e-05 M; in the data set on SUDHL5, 1600 nM.

The values are drawn from patent publication US11401278B2, “Macrocyclic indole derivatives” (The Broad Institute, Inc., priority 2017, dated 2022).
